From US20160368873A1, “Optically Active Form of Mepenzolate, and Ameliorating Agent for Chronic Obstructive Pulmonary Disease Which Contains Same as Active Ingredient” (LTT BIO-PHARMA CO., LTD., priority 2014, published 2016)

How the values were obtained:
ICR mice [1] = assay: Effect on methacholine-induced airway constriction (1) (Test Example 3.1); format: in vivo; conditions: 3.75 μg/kg via the airway, 1 h before nebulized methacholine, FIG. 5
Description: (§1) Increase in airway resistance induced by methacoline was measured.
4 to 6 week old ICR mice received 1 mg/mL methacoline by nebulization over 20 seconds and this was repeated five times. After each administration of methacoline was completed, the airway resistance was measured by a snap shot technique. All the data were analyzed by using FlexiVent software.
(§2) One hour after administration, the mice received five exposures to nebulized methacoline by the above-mentioned method and the airway resistance at the time of each administration was measured.

ICR mice [2] = assay: Effect on methacholine-induced airway constriction (2) (Test Example 3.2); format: in vivo; conditions: 3.8 μg/kg via the airway, 1 h before nebulized methacholine, FIG. 7
Description: as §1
4 to 6 week old ICR mice were anesthetized with chloral hydrate (500 mg/kg), a tracheostomy was performed, and a metal tube […] in diameter was inserted into the trachea.
The mice were mechanically ventilated at 150 respirations/minute with a displacement per one cycle of 8.7 mL/kg and a positive end-expiratory pressure of 2 to 3 cmH2O.
The mice were exposed to nebulized methacholine (5 mg/kg) for 20 seconds four times at intervals of 40 seconds to induce airway resistance by methacholine, and the airway resistance was measured by a snap shot technique.
as §2
The data were analyzed by using FlexiVent software.

SMILES: C[N+]1(C)CCC[C@@H](OC(=O)C(O)(c2ccccc2)c2ccccc2)C1.[Br-] (racemic) [racemate, mepenzolate bromide, reference compound]
- Effect of suppressing airway resistance (methacholine-induced) (ICR mice [1]): significant effect of suppressing airway resistance
- Effect of suppressing airway resistance (methacholine-induced), low dose (ICR mice [2]): significant effect of suppressing airway resistance
